According to patent US20220119825A1, “SCALABLE PEPTIDE-GPCR INT[…] SYSTEMS” (THE TRUSTEES OF COLUMBIA UNIVERSITY IN THE CITY OF NEW YORK, priority 2019, published 2022):

Test system: Ste2-like fungal mating GPCRs expressed in S. cerevisiae
Assay: GPCR on-off activity and dose response assay (FUS1 promoter coRFP fluorescent reporter, strain JTy014, synthetic peptide ligand)
Format: cell-based, Ascomycete fungi (expressed in S. cerevisiae)
Set-up: EC50: unit: log10 M
Settings: for Hill Slope: Hill slope of 4-parameter fit; for Bttm: bottom of 4-parameter fit of the fluorescence dose response curve (basal activation); for Fold Change: fold-change activation from Top and Bttm of the fit; for EC50: peptide/GPCR pair, synthetic cognate peptide, fluorescence read-out, 4-parameter fit of dose response curves (FIG. 6), values given as negative (log) numbers; for Span: span of 4-parameter fit of the fluorescence dose response curve; for Top: top of 4-parameter fit of the fluorescence dose response curve (maximal activation)
Method: GPCR on-off activity and dose response assay. GPCR activity and response to increasing dosage of synthetic peptide ligand was measured in strain JTy014 using the genomically integrated FUS1-promoter controlled coRFP as a fluorescent reporter. JTy014 strains carrying the appropriate GPCR expression plasmid were assayed in 96-well microtiter plates using 200 μl total volume, cultured at 30° C. and 800 RPM. Cells were seeded at an A600 of 0.3 (Note: all herein reported cell density values are based on A600 measurements in 96-well plates of a 200 μl volume of cultures with a path length of ˜0.3 cm performed in an Infinite M200 plate reader from Tecan) in SC media lacking uracil (selective component). All measurements were performed in triplicates. RFP fluorescence (excitation: 588 nm, emission: 620 nm) and culture turbidity (A600) were measured after 8 hours using an Infinite M200 plate reader (Tecan). Since the optical density values were outside the linear range of the photodetector, all optical density values were first corrected using the following formula to give true optical density values: […]
where Ameas is the measured optical density, Asat is the saturation value of the photodetector and k is the true optical density at which the detector reaches half saturation of the measured optical density^36. Dose-response was measured at different concentrations (11 five-fold dilutions in H2O starting at 40 μM peptide, H2O was used as “no peptide” control) of the appropriate synthetic peptide ligand. All fluorescence values were normalized by the A600, and plotted against the log(10)-converted peptide concentrations. Data were fit to a four-parameter non-linear regression model using Prism (GraphPad) in order to extract GPCR-specific values for basal activation, maximal activation, EC50 and the Hill coefficient. Fold-activation was calculated for each GPCR as the maximum A600-normalized fluorescence of peptide-treated cells divided by the A600 normalized fluorescence value of water-treated cells.

SMILES | Hill Slope | Bttm | Fold Change | EC50 | Span | Top
CSCC[C@H](NC(=O)[C@H](CS)NC(=O)[C@@H](N)Cc1c[nH]c2ccccc12)C(=O)N[C@@H](CCCNC(=N)N)C(=O)N1CCC[C@H]1C(=O)NCC(=O)N[C@@H](CCC(N)=O)C(=O)N1CCC[C@H]1C(=O)N[C@@H](CS)C(=O)N[C@@H](Cc1c[nH]c2ccccc12)C(=O)O [Bb] | 1.0 | 25.2 | 9.7 | −8.5 | 218.9 | 244.1
N=C(N)NCCC[C@H](NC(=O)CNC(=O)[C@H](CS)NC(=O)[C@@H](N)Cc1c[nH]c2ccccc12)C(=O)N1CCC[C@H]1C(=O)NCC(=O)N[C@@H](CCC(N)=O)C(=O)N1CCC[C@H]1C(=O)N[C@@H](CS)C(=O)O [Bc] | 0.7 | 28.6 | 12.3 | −8.1 | 323.3 | 351.9
CC(C)C[C@H](NC(=O)[C@H](CCCNC(=N)N)NC(=O)[C@H](Cc1ccccc1)NC(=O)CN)C(=O)N[C@H](C(=O)N[C@@H](CC(N)=O)C(=O)N[C@@H](Cc1ccccc1)C(=O)NCC(=O)N[C@@H](Cc1ccc(O)cc1)C(=O)N[C@@H](Cc1ccccc1)C(=O)N[C@@H](CCC(=O)O)C(=O)N1CCC[C@H]1C(=O)NCC(=O)O)[C@@H](C)O [Ca] | 1.0 | 38.9 | 7.0 | −7.7 | 232.8 | 271.6
CC[C@H](C)[C@H](NC(=O)[C@@H]1CCCN1C(=O)[C@H](CCC(N)=O)NC(=O)[C@H](Cc1ccccc1)NC(=O)[C@H](Cc1ccccc1)NC(=O)[C@H](Cc1c[nH]c2ccccc12)NC(=O)[C@H](Cc1ccc(O)cc1)NC(=O)[C@@H](NC(=O)[C@H](CC(C)C)NC(=O)[C@H](Cc1ccccc1)NC(=O)[C@H](CCCNC(=N)N)NC(=O)[C@H](CO)NC(=O)[C@H](CC(N)=O)NC(=O)[C@H](CCCCN)NC(=O)[C@@H](N)CCCCN)[C@@H](C)O)C(=O)N[C@@H](CCSC)C(=O)O [Cgu] | 1.1 | 41.2 | 5.1 | −7.4 | 170.5 | 211.7
CC[C@H](C)[C@H](NC(=O)[C@H](Cc1c[nH]c2ccccc12)NC(=O)[C@H](CCCCN)NC(=O)[C@H](Cc1c[nH]c2ccccc12)NC(=O)[C@@H](N)CCCCN)C(=O)N[C@@H](CCCCN)C(=O)N[C@@H](Cc1ccccc1)C(=O)N[C@@H](CCCNC(=N)N)C(=O)N[C@@H](CC(N)=O)C(=O)N[C@H](C(=O)N[C@@H](CC(=O)O)C(=O)N[C@H](C(=O)N[C@H](C(=O)NCC(=O)O)[C@@H](C)CC)C(C)C)[C@@H](C)O [Cl] | 0.9 | 39.8 | 1.4 | −7.5 | 186.0 | 225.8
CSCC[C@H](NC(=O)[C@H](C)NC(=O)[C@@H]1CCCN1C(=O)[C@H](CC(=O)O)NC(=O)CNC(=O)[C@@H]1CCCN1C(=O)[C@H](CCCNC(=N)N)NC(=O)[C@@H]1CCCN1C(=O)[C@@H](NC(=O)[C@H](Cc1ccc(O)cc1)NC(=O)[C@H](Cc1c[nH]c2ccccc12)NC(=O)[C@H](Cc1ccccc1)NC(=O)[C@H](Cc1c[nH]c2ccccc12)NC(=O)CNC(=O)[C@H](Cc1c[nH]c2ccccc12)NC(=O)[C@H](CC(=O)O)NC(=O)CN)C(C)C)C(=O)O [Gc] | 1.8 | 22.9 | 8.2 | −6.9 | 164.3 | 187.2
CC[C@H](C)[C@H](NC(=O)[C@H](CCCNC(=N)N)NC(=O)[C@H](Cc1ccc(O)cc1)NC(=O)[C@H](CS)NC(=O)[C@@H](N)Cc1c[nH]c2ccccc12)C(=O)NCC(=O)N[C@@H](CCC(=O)O)C(=O)N1CCC[C@H]1C(=O)N[C@@H](CS)C(=O)N[C@@H](Cc1c[nH]c2ccccc12)C(=O)O [Hj] | 0.6 | 53.0 | 8.1 | −7.8 | 376.5 | 429.5
